Measurements: ChEMBL document CHEMBL5137076, “SLL-627 Is a Highly Selective and Potent κ Opioid Receptor (KOR) Agonist with an Unexpected Nonreduction in Locomotor Activity” (2022)

Experiments:
[1] = Toxicity in ICR mouse assessed as reduction in time stayed in rod at 7.5 mg/kg, ip for 3 hrs by rotarod test; settings: in vivo
[2] = Toxicity in ICR mouse assessed as reduction in time stayed in rod at 2.1 mg/kg, ip for 3 hrs by rotarod test; settings: in vivo
[3] = Toxicity in ICR mouse assessed as reduction in time stayed in rod at 0.006 to 0.02 mg/kg, ip for 20 mins by rotarod test; settings: in vivo
[4] = Toxicity in ICR mouse assessed as reduction in time stayed in rod at 5 mg/kg, ip for 30 mins by rotarod test; settings: in vivo, 0.5 h
[5] = Toxicity in CD-1 mouse assessed as conditional preference aversion at ED50, ip administered for 7 day; settings: in vivo, 168 h
[6] = Toxicity in Kunming mouse assessed as effect on spontaneous locomotor activity at ED50 to ED90, ip after 4 hrs followed by locomotion measured for 1 hr; settings: in vivo, 5 h
[7] = Toxicity in CD-1 mouse assessed as conditional preference aversion at ED90, ip administered for 7 day; settings: in vivo, 168 h
[8] = Toxicity in ICR mouse assessed as reduction in time stayed in rod at ED50 to ED90, ip for 4 hrs by rotarod test; settings: in vivo

**Q.** Which results are given for COc1ccc2c3c1O[C@H]1[C@@]4(OC)C=C[C@@]5(C[C@@H]4C(=O)c4ccccc4)[C@@H](C2)N(CC2CC2)CC[C@]315?
**A.** Activity [1]: Toxic; Activity [2]: Non-Toxic

**Q.** For CN(C(=O)/C=C/c1ccoc1)[C@@H]1CC[C@@]2(O)[C@H]3Cc4ccc(O)c5c4[C@@]2(CCN3CC2CC2)[C@H]1O5, which Activity [3] is on record?
**A.** Non-Toxic

**Q.** Which Activity [4] does the source give for CN(C(=O)Cc1ccc(Cl)c(Cl)c1)C1CCCCC1N1CCCC1.CS(=O)(=O)O (centres undefined) here?
**A.** Toxic

**Q.** And the Activity [5]?
**A.** Toxic

**Q.** For COc1ccc2c3c1O[C@H]1[C@@]4(OC)CC[C@@]5(C[C@@]4(C)[C@H](O)c4ccccc4)[C@@H](C2)N(CC2CC2)CC[C@]315, which Activity [5] is on record?
**A.** Non-Toxic

**Q.** What about the Activity [6] of the same molecule?
**A.** Non-Toxic

**Q.** What about the Activity [7] of the same molecule?
**A.** Toxic

**Q.** What about the Activity [8] of the same molecule?
**A.** Non-Toxic
